Like-named read-outs stand apart in the source and are kept apart here.
Tests used:
HIF-1α protein = HIF-1α protein levels in cancer cells by Western blotting of nuclear extracts
HIF-1α mRNA = HIF-1α mRNA level in cells; conditions: normoxic or hypoxic conditions
HIF-1 transactivation = assay: Hypoxia Response Element (HRE) luciferase reporter assay
VEGF protein = assay: VEGF ELISA in cell lysates and medium
HIF-1α [1] = assay: HIF-1α degradation (cycloheximide block, pulse-chase analysis); conditions: HT-29 cells, hypoxia, cycloheximide treated, PX-478 25 M
[2] = test system: HT-29 colon tumor xenografts; assay: HT-29 colon tumor xenografts in scid mice, tumor protein levels by Western blotting; conditions: HT-29 xenografts in scid mice, 100 mg/kg, 2 hr
HT-29 cells = assay: Levels of HSP-90, HSP-90 client proteins and other ubiquitination-controlled proteins by Western blotting
PC-3 xenografts = assay: PC-3 xenografts, tumor HIF-1α level and ubiquitination; conditions: data not shown
HIF-1α [3] = assay: Subcellular localization of HIF-1α (nuclear/cytoplasmic fractions, immunofluorescence); conditions: HT-29 cells
hypoxic cells = conditions: in the presence of a reducing enzyme; U.S. Pat. No. 5,602,278; cited from earlier work
HIF-1β protein = HIF-1β protein level in cells; conditions: normoxic or hypoxic conditions
HIF-1α [4] = assay: Ubiquitination of HIF-1α in cells (immunoprecipitation and Western blotting); assay type: cell-based, human
HT-29 xenografts = conditions: 100 mg/kg; Welsh et al., Eur. J. Cancer 2002; cited from earlier work

SMILES: N[C@@H](Cc1ccc([N+]([O-])(CCCl)CCCl)cc1)C(=O)O
- HIF-1α protein (HIF-1α protein; HCT116+/+ (wild type p53) and HCT116−/− (p53 deleted) cells): decreased HIF-1α protein in both cell lines
- HIF-1α proline hydroxylation relative to total HIF-1α levels (HIF-1α protein; HT-29 cells, hydroxy-Pro564 antibody): did not increase
- IC50 (HIF-1α protein; read-out: IC50 for decrease of HIF-α levels, RCC4/VHL cells, hypoxic conditions): 13.5 µM
- IC50 (HIF-1α protein; read-out: IC50 for decrease of HIF-α levels, RCC4 cells (lacking pVHL), hypoxic conditions): 6.9 µM
- IC50 (HIF-1α protein; read-out: IC50 for decrease of HIF-α levels, RCC4 cells, normoxic conditions): 5.1 µM
- IC50 (HIF-1α protein; read-out: IC50 for inhibition of hypoxia-induced increase in HIF-1α protein, HT-29 colon cancer cells, hypoxia 1% oxygen, 16 hours, mean±S.E., n=3): 17.4 µM
- IC50 (HIF-1α protein; read-out: IC50 for inhibition of hypoxia-induced increase in HIF-1α protein, MCF-7 breast cancer cells, hypoxia 1% oxygen, 16 hours, mean±S.E., n=3): 4 µM
- IC50 (HIF-1α protein; read-out: IC50 for inhibition of hypoxia-induced increase in HIF-1α protein, PC-3 human prostate cancer cells, hypoxia 1% oxygen, 16 hours, mean±S.E., n=3): 3.9 µM
- Change in HIF-1α mRNA (HIF-1α mRNA): no change
- HIF-1 transactivation (HRE luciferase) (HIF-1 transactivation; MCF-7 and HT-29 cells, 16 hours): significantly decreased
- HIF-1 transactivation (HRE luciferase) (HIF-1 transactivation; RCC4 and RCC4/VHL cells, p=<0.01): significantly inhibited
- Hypoxia induced expression of VEGF protein (VEGF protein; MCF-7 and HT-29 cells, 16 hours, hypoxic conditions, p=<0.01, dose-dependent): significantly decreased
- VEGF protein production (VEGF protein; normoxic conditions): not inhibited
- Rate of HIF-1α breakdown (HIF-1α [1]): increased the rate of HIF-1α breakdown
- Changes in AKT, Raf-1, Src-1, histone H1, cyclin B1 or mutant p53 in tumor [2]: No changes
- Levels of HSP-90 and HSP-90 client proteins AKT, c-Src and Raf-1 (HT-29 cells): does not affect
- Levels of cyclin B1, histone H1 or mutant p53 (HT-29 cells): no effect
- HIF-1α protein levels in tumor (PC-3 xenografts): decrease
- HIF-1α ubiquitination in tumor (PC-3 xenografts): increase
- Cellular localization of HIF-1α (immunofluorescence) (HIF-1α [3]; hypoxia 16 hours, 25M PX-478): does not affect the cellular localization of HIF-1α
- HIF-1α levels in nuclear and cytoplasmic fractions (HIF-1α [3]; hypoxic conditions, 16 hour): decreased HIF-1α levels in both subcellular fractions
- Killing of hypoxic cells in a reducing environment (hypoxic cells): preferentially kill hypoxic cells
- Change in HIF-1β protein (HIF-1β protein): no change
- Ubiquitination of HIF-1α with proteasome inhibited (HIF-1α [4]; HT-29 cells, hypoxia, 10 M LLnV, PX-478 in absence or presence of cycloheximide): promoted a shift towards highly ubiquitinated species of HIF-1α
- Total cell protein ubiquitination (HIF-1α [4]; HT-29 total cell extracts): without affecting
- Growth delay of HT-29 xenografts (HT-29 xenografts): significant growth delay
